Experimental data from US20240058240A1, “COMPOUNDS AS SELF-TANNING SUBSTANCES AND TANNING COMPOSITIONS THEREOF” (CHEMCOM S.A., priority 2020, published 2024).

The chains behind the UniProt entries cited, without tags or fusion partners.
UniProt O76099, whole entry: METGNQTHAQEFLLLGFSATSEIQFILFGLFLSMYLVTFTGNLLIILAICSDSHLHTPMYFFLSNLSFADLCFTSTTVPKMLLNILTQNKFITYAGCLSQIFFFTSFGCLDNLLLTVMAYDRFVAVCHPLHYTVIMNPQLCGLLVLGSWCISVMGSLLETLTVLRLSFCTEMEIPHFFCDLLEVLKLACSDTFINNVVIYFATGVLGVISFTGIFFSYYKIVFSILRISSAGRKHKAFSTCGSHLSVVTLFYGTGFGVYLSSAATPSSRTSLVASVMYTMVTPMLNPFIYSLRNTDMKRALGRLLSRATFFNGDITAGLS

Target: OR7C1 (Homo sapiens, UniProt O76099)
Assay: Luciferase-based CRE gene reporter assay, dose-response on OR7C1
Details: negative logarithm of the EC50 in Moles; semi-logarithmic dilutions from 1 mM to 316 nM on OR7C1

C[C@H](CO)C1=C2C(C)(C)[C@H]3CC[C@@]2(C3)C(C)(C)CC1
-LogEC50 (average n > 3): 4.3
